Binding of CDR-mutated scFvs to a peptide of the spike HR2 region

The measurements come from Engelhart et al. 2022 (doi:10.1038/s41597-022-01779-4) through the FLAb antibody collection.

All variants were tested on one target, the spike HR2 peptide PDVDLGDISGINAS (SARS-CoV-2).

The variants keep the light chain, the linker and the frameworks of Ab-14 (scFv order VH, the linker GGGGSGGGGSGGGGS, VL).
VH: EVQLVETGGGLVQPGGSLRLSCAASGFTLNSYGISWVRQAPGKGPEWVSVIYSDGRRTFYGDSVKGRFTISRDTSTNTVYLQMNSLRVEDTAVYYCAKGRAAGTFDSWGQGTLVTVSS
VL: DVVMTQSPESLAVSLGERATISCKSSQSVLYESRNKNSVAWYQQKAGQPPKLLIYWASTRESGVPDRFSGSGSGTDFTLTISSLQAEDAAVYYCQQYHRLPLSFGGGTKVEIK

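The parent was found by panning a naive human phage display library on the peptide. In library AAYL49, one, two or three CDR residues were substituted; doubles and triples were drawn at random. Affinity was read by AlphaSeq, a pooled yeast mating assay with surface-displayed partners. After mating in shaken culture at 30 °C for 16 h, diploids were selected and their barcode pairs sequenced. A regression on co-assayed BCL2-family reference pairs converts the normalised counts of each replicate to an apparent Kd. Mating was done three times.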

The whole VH of each variant is written out. The Kd shown is the geometric mean over detected replicates; a lower Kd is a better binder. An entry "no signal" has no value in the source: the pair was not observed among the diploids in any replicate. This suggests poor binding but is not conclusive. Parent in this assay: reference entry 4.4 nM, copy in this library 13 µM (one replicate of three).

| VH | apparent Kd | detected |
|---|---|---|
| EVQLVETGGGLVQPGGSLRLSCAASGHTLNSYGISWVRQAPGKGPEWVSVIYSDGRRTFYGGSVKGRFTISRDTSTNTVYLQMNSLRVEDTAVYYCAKGRAAGSFDSWGQGTLVTVSS | 84 nM | 1/3 |
| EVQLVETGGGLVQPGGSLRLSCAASGFTLNSYFISWVRQAPGKGPEWVSVIYSDGERTFDGDSVKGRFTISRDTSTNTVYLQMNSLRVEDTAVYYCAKGRAAGTFDSWGQGTLVTVSS | 26 µM | 1/3 |
| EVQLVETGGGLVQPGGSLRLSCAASGDTLNSYGISWVRQAPGKGPEWVSVIYSDTRRTFYGDSVKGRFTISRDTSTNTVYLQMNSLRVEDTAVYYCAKWRAAGTFDSWGQGTLVTVSS | no signal | 0/3 |
| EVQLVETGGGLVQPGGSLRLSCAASGFTLNSYGISWVRQAPGKGPEWVSVIYFDGRRTFYGDPVKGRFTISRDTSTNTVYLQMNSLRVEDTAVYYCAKGDAAGTFDSWGQGTLVTVSS | 120 nM | 3/3 |
| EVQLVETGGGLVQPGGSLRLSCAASGFTLNSYGISWVRQAPGKGPEWVSVPYSDGRRPFYGNSVKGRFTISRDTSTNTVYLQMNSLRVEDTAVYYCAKGRAAGTFDSWGQGTLVTVSS | no signal | 0/3 |
| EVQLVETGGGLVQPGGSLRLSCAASGFTLNSYGISWVRQAPGKGPEWVSSIYRDGRREFYGDSVKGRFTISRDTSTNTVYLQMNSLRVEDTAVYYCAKGRAAGTFDSWGQGTLVTVSS | no signal | 0/3 |
| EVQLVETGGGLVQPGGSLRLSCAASGFTWNSYGISWVRQAPGKGPEWVSVIYSDGPRLFYGDSVKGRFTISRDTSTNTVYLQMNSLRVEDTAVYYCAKGRAAGTFDSWGQGTLVTVSS | 21 µM | 1/3 |
| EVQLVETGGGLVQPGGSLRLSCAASGDTLNSYGASWVRQAPGKGPEWVSVIYSDGRRTFYGDSVKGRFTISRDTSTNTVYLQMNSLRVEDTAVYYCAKGWAAGTFDSWGQGTLVTVSS | no signal | 0/3 |
| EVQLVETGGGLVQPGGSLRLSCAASGFTLNSYGIKWVRQAPGKGPEWVSVIYSDGRRTFYGDSVEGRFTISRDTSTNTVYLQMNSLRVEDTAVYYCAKGRYAGTFDSWGQGTLVTVSS | no signal | 0/3 |
| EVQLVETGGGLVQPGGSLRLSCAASGFQLNSYGISWVRQAPGKGPEWVSVIYSDGRRHFYGDSVKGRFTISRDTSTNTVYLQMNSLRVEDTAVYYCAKGRAAGTFRSWGQGTLVTVSS | no signal | 0/3 |
| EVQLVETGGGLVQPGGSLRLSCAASGFTLNSYTISWVRQAPGKGPEWVSVIPSDGRRTFYGDSVLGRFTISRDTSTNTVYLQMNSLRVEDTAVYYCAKGRAAGTFDSWGQGTLVTVSS | no signal | 0/3 |
| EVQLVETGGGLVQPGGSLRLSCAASGFTLESVGISWVRQAPGKGPEWVSVIYSDGRRTFYGDSVKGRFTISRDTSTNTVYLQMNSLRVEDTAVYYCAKGRAAGTFDSWGQGTLVTVSS | 28 nM | 3/3 |
| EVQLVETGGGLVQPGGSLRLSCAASGFTLNSAGIIWVRQAPGKGPEWVSVIYSDGRVTFYGDSVKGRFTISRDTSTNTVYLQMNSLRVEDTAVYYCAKGRAAGTFDSWGQGTLVTVSS | 22 µM | 2/3 |
| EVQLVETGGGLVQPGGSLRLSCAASGFTLNSYGIGWVRQAPGKGPEWVSVIYSDGRRTFYGDSVKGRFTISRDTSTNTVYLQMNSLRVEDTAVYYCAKGRGARTFDSWGQGTLVTVSS | no signal | 0/3 |
| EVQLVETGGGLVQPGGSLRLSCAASGFTLNSYGISWVRQAPGKGPEWVSVIYSDGYHTEYGDSVKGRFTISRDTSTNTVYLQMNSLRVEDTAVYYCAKGRAAGTFDSWGQGTLVTVSS | 4.7 µM | 3/3 |
| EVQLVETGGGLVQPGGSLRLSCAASGFTLNSNGISWVRQAPGKGPEWVSVIYSDGRRYFYGDSVKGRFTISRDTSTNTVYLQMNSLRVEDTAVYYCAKGRAAWTFDSWGQGTLVTVSS | 8.8 µM | 1/3 |
| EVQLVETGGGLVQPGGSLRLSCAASGFTLNSYGISWVRQAPGKGPEWVSVIYGDGRTTFYGDSVKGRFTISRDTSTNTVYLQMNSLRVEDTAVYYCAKGRAAGTFDSWGQGTLVTVSS | 76 µM | 2/3 |
| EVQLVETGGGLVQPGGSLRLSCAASGFTLNYYGISWVRQAPGKGPEWVSVYYSDGRRTFYGDVVKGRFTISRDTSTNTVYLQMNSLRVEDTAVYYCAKGRAAGTFDSWGQGTLVTVSS | no signal | 0/3 |
| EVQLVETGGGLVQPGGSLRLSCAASIFTLNSYGISWVRQAPGKGPEWVSVIYSDPRRTFYGDGVKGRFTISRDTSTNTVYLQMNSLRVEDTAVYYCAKGRAAGTFDSWGQGTLVTVSS | 4.8 µM | 1/3 |
| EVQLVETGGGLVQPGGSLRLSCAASNFTLNSWGISWVRQAPGKGPEWVSVIYSDGRRTFYGDSTKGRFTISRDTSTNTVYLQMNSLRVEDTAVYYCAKGRAAGTFDSWGQGTLVTVSS | 14 µM | 1/3 |
| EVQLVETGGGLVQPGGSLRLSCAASGFHLNSYGISWVRQAPGKGPEWVSYIYSDGRRTFYGDSVKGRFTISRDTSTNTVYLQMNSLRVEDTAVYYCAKGRAAFTFDSWGQGTLVTVSS | no signal | 0/3 |
| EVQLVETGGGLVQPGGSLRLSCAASGFTLNSYGISWVRQAPGKGPEWVSVWYSDGRRTMYGDSVKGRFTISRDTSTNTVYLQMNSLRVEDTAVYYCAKGRAAGTFDTWGQGTLVTVSS | no signal | 0/3 |
| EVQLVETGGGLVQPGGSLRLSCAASGFTTNSYGISWVRQAPGKGPEWVSLIYSDGRRTFYGDSVKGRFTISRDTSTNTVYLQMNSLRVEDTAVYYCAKGRAAVTFDSWGQGTLVTVSS | no signal | 0/3 |
| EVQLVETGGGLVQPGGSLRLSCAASGFTLNSHGISWVRQAPGKGPEWVSVIYSDGVRTFYGDGVKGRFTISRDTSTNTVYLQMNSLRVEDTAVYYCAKGRAAGTFDSWGQGTLVTVSS | 360 µM | 3/3 |
| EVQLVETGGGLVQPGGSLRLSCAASIFTLNSYGISWVRQAPGKGPEWVSVIYSDGRRLFYGDSVKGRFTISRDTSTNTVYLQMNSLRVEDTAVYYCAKGRAAGTFDSWGQGTLVTVSS | no signal | 0/3 |
| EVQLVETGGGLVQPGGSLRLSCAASGFTLNSYGISWVRQAPGKGPEWVSVIRSDGRRTFYWDSVKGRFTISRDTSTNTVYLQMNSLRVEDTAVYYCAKGRAAGTFKSWGQGTLVTVSS | no signal | 0/3 |

From the list, the first 3 with no signal in any replicate:

| VH | apparent Kd | detected |
|---|---|---|
| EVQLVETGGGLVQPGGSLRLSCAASGDTLNSYGISWVRQAPGKGPEWVSVIYSDTRRTFYGDSVKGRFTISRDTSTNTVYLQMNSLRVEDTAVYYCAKWRAAGTFDSWGQGTLVTVSS | no signal | 0/3 |
| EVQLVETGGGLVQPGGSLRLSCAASGFTLNSYGISWVRQAPGKGPEWVSVPYSDGRRPFYGNSVKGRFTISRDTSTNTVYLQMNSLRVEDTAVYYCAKGRAAGTFDSWGQGTLVTVSS | no signal | 0/3 |
| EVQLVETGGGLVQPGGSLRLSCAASGFTLNSYGISWVRQAPGKGPEWVSSIYRDGRREFYGDSVKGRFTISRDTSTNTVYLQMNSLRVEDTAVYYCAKGRAAGTFDSWGQGTLVTVSS | no signal | 0/3 |

As a blank, each scFv also met three strains without target: over library AAYL49, 15% of these pairings were detected, typically at 11 µM and seldom below 680 nM.